This is a selection; strong and weak results do not stand in their true shares. Calls of active or inactive are those of the source. Cut-off read from the data, not from the text of the source: active = hERG blockade below about -20% or above about 20%; inactive = in between.
What follows are compounds tested against Voltage-gated inwardly rectifying potassium channel KCNH2 (Homo sapiens) (UniProt Q12809) (assay: modulators of KCNH2 ion channel function, cellular (AID 376;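 note: 0% = buffer alone and 100% = reference blocker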)). Settings: hERG-expressing cells, channel activity single-concentration screen; concentration not given here.

Protein sequences, listed by entry. Tags and fused reporters are not part of them.
UniProt Q12809, whole entry: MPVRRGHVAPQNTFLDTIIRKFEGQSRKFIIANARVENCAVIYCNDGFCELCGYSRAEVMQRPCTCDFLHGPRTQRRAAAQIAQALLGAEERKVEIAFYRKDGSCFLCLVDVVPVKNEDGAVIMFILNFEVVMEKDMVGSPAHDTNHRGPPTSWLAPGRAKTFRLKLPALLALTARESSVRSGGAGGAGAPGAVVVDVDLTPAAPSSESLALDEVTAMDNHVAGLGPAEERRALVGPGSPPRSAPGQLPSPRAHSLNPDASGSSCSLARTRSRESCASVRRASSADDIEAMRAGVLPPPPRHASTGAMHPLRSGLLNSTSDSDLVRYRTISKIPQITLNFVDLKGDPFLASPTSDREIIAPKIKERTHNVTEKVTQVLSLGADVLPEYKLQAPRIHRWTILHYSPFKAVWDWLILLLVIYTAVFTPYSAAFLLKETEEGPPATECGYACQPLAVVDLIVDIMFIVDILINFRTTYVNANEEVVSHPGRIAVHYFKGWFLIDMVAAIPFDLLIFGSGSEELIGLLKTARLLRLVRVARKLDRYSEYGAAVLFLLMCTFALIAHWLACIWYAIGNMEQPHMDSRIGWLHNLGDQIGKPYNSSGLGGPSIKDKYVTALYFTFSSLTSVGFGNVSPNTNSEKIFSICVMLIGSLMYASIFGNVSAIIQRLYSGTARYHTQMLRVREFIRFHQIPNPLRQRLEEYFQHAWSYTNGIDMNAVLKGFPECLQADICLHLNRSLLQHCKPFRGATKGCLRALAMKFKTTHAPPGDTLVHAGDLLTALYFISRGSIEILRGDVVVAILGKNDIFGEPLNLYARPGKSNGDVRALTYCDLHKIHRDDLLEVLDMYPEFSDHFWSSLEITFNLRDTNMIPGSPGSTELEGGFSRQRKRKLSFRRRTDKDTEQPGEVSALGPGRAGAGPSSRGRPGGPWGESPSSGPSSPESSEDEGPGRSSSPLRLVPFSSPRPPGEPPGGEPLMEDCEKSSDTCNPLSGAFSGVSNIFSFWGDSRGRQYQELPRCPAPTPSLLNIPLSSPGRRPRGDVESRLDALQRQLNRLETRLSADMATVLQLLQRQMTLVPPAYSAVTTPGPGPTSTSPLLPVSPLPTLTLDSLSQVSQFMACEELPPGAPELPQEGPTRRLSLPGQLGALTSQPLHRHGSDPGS

Row | Structure (SMILES) | hERG blockade
1 | O=C(O)C1(Nc2ccccc2)CCN(Cc2ccccc2)CC1 | active: -21%
2 | NC1CCCCC1.NP(=O)(O)N(CCCl)CCCl | inactive: -18.3%
